Paper PMC3688631 (ACS medicinal chemistry letters, 2013)

By UniProt entry, the sequences of proteins in these tests, tags left out.
UniProt P42336, whole entry Q859D: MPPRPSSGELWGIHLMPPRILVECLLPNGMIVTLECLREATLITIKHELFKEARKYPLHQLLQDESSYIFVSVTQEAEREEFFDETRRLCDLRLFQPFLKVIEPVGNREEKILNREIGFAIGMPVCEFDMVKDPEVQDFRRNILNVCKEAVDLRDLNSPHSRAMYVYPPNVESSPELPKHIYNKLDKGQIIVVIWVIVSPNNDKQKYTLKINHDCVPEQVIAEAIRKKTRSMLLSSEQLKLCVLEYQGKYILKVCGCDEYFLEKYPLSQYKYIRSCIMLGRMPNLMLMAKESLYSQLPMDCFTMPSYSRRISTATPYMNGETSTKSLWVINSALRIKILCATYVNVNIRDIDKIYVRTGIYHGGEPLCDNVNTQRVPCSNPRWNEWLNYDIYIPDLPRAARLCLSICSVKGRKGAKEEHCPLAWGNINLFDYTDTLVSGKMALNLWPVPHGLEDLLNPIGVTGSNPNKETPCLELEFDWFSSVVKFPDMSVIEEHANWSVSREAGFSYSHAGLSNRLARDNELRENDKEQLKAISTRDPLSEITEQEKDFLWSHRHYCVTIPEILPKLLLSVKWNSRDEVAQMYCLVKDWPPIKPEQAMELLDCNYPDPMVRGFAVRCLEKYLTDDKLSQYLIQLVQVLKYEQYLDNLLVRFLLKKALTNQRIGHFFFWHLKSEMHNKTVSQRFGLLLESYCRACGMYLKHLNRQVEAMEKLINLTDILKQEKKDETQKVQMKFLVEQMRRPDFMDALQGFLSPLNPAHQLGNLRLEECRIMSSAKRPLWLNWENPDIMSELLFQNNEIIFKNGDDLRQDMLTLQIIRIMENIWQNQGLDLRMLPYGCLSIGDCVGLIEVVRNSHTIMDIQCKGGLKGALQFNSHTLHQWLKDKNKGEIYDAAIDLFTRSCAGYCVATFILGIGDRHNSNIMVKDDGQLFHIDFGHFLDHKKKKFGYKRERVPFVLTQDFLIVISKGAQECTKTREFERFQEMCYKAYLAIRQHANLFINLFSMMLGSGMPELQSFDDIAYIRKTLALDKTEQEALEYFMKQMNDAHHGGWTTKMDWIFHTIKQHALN

Molecular target: PI3Kα Q859D (Homo sapiens, UniProt P42336, Q859D)
Assay: Inhibition of in vitro mutant PI3Kα Q859D
Assay type: biochemical

IC50: 2.3 µM
SMILES: C[C@H](N)C(=O)N1CCN(c2nc(N3CCOCC3)nc(-n3c(C(F)F)nc4ccccc43)n2)CC1 [Compound 19]
